# Measurements taken from US20260384421A1, “NOVEL COMPOUNDS THAT CAN BE USED AS THERAPEUTIC AGENTS” (published 2026).
# pIC50: −log10 of the molar value. Read-outs that look alike come from different tables or passages of the source.
# What was measured:
# MDA-MB-231 cells = assay: alamarBlue proliferation assay with MDA-MB-231 cells (glucose-free Leibovitz's L-15 medium)
# JURKAT cells = assay: alamarBlue proliferation assay with JURKAT cells; conditions: read-out: Activity on JURKAT (IC50), day 5
# Excerpt: (§1) These hyperproliferative processes can be benign or malignant and include hyperplasia, neoplasia, cancer and pre-cancerous lesions, and metastases. The antiproliferative activities of compounds falling under general formula (I) were investigated on human primary epidermal keratinocytes (HPEK) and human, murine and canine cell lines derived from hyperproliferative tissue or different cancer types, including MDA-MB-231, ZR-75-30, HCC-1395, HCC-1937, and T-47D all originating from cancer of the breast, JURKAT, RPMI-8402, LOUCY, TANQUE, REC-1, HL-60, NB-4 all originating from different types of blood cancer including lymphoma and leukemia of T-cells, B-cells and myeloid cells, TT originating from cancer of the neuroendocrine system, HeLa originating from cancer of the cervix, 23132/87, SW-948, and HCT-116 all originating from cancer of the gastrointestinal tract including stomach and colon, BHY originating from cancer of the mucosal epithelium, A-431 originating from cancer of the skin, HEP-G2 originating from cancer of the liver, NCI-H460 and A-549 both originating from cancer of the lung, PANC-1 originating from cancer of the pancreas, U-87 MG originating from cancer of the brain, A-375 and RVH-421 both originating from cancer of melanocytes, SW-1353 originating from cancer of bone-derived chondrocytes, C2C12 a mouse cell line originating from hyperproliferative muscle progenitor cells, LL/2 a mouse cell line originating from cancer of the lung, CF21.T a dog cell line originating from cancer of the connective tissue. To this end, according cells were seeded into 96-well plates (CORNING #3598) suitable for fluorescence assays at following initial cell numbers: 1000 cells per well for HPEK; 3000 cells per well for MDA-MB-231, 8000 cells per well for ZR-75-30, 1500 cells per well for HCC-1395, 1500 cells per well for HCC-1937, 3000 cells per well for T-47D, 1500 cells per well for JURKAT, 5000 cells per well for RPMI-8402, 9000 cells per well for LOUCY, 1500 cells per well for TANQUE, 9000 cells per well for REC-1, 1000 cells per well for HL-60, 1000 cells per well for NB-4, 9000 cells per well for TT, 2000 cells per well for HeLa, 2000 cells per well for 23132/87, 9000 cells per well for SW-948, 700 cells per well for HCT-116, 1500 cells per well for BHY, 700 cells per well for A-431, 1500 cells per well for HEP-G2, 500 cells per well for NCI-H460, 1000 cells per well for A-549, 1500 cells per well for PANC-1, 2500 cells per well for U-87 MG, 700 cells per well for A-375, 1500 cells per well for RVH-421, 2000 cells per well for SW-1353, 500 cells per well for C2C12, 500 cells per well for LL/2, and 3000 cells per well for CF21.T. In a volume of 90 μL per well of culture medium the cells were treated with compounds at indicated final concentrations by adding 10 μL per well of 10× compound working solutions from 1:100 pre-diluted 1000× compound DMSO stock-solutions in H2O (Water For Injection, WFI, Fisher Scientific, Gibco™ #A12873) or with the empty carrier DMSO (AppliChem, #A3672) at 0.1% v/v as control yielding a final volume of 100 μL per well. At day 5 after starting the treatments the cells were subjected to the alamarBlue® Proliferation Assay (Bio-Rad Serotec GmbH, BUF012B) according to the protocol of the manufacturer. The readout was taken with a multi-well plate-reader (Tecan Spark®) in the fluorescence mode with applying a filter for excitation at 560 nm (band width 10 nm) and for emission at 590 nm (band width 10 nm). Treatment for maximum proliferation inhibition with the commercial cytotoxic compound (S)-(+)-camptothecin (Fluorochem #M01564) at a concentration of 10 μM was included on each plate for assay quality control. Some of the test compounds of the present invention may have been obtained and applied as their salt forms.
# (§2) The assays were performed in duplicate or more replicates of independent single experiments each containing a three- to six-fold replicate for every condition. […]
# HL-60 cells = assay: alamarBlue proliferation assay with HL-60 cells; conditions: read-out: Activity on HL-60: IC50, RPMI 1640 medium, 10% FBS
# Excerpt: as §1, §2
# SW-948 cells = assay: alamarBlue proliferation assay with SW-948 cells (glucose-free L-15 medium); conditions: read-out: Activity on SW-948: IC50, Leibovitz's L-15 medium, 10% FBS, 0% CO2
# Excerpt: as §1, §2
# NCI-H460 cells = assay: alamarBlue proliferation assay with NCI-H460 cells; conditions: read-out: Activity on NCI-H460: IC50, RPMI 1640 medium, 10% FBS
# RVH-421 cells = assay: alamarBlue proliferation assay with RVH-421 cells (glucose-free L-15 medium); conditions: read-out: Activity on RVH-421: IC50, Leibovitz's L-15 medium, 10% FBS, 0% CO2
# Excerpt: as §1, §2
# TANQUE cells = assay: alamarBlue proliferation assay with TANQUE cells; conditions: read-out: Activity on TANOUE: IC50, RPMI 1640 medium, 10% FBS
# NB-4 cells = assay: alamarBlue proliferation assay with NB-4 cells; conditions: read-out: Activity on NB-4: IC50, RPMI 1640 medium, 10% FBS
# HCT-116 cells = assay: alamarBlue proliferation assay with HCT-116 cells; conditions: read-out: Activity on HCT-116: IC50, McCoy's 5A medium, 10% FBS
# BHY cells = assay: alamarBlue proliferation assay with BHY cells; conditions: read-out: Activity on BHY: IC50, DMEM medium, 10% FBS
# A-549 cells = assay: alamarBlue proliferation assay with A-549 cells; conditions: read-out: Activity on A-549: IC50, DMEM medium, 10% FBS
# A-375 cells = assay: alamarBlue proliferation assay with A-375 cells; conditions: read-out: Activity on A-375: IC50, DMEM medium, 10% FBS
# Excerpt: as §1, §2
# LL/2 cells = assay: alamarBlue proliferation assay with LL/2 cells; conditions: read-out: Activity on LL/2: IC50; LL/2 murine Lewis lung carcinoma cells, DMEM medium, 10% FBS
# HPEKp cells = assay: proliferation assay with human epidermal keratinocyte progenitors (HPEKp), selectivity versus MDA-MB-231; conditions: read-out: Activity (HPEK); HPEK cells (HPEKp); antiproliferative activity, class by IC50
# [1] = test system: mitochondrial transmembrane potential Δψm in A-549 cells; assay: mitochondrial activity assay (TMRE staining, mitochondrial transmembrane potential) on A-549 cells; conditions: A-549 cells, compounds at 10 μM, 2 h 40 min, TMRE staining, relative to DMSO = 1.0
# Description: A decrease in mitochondrial function can be assessed by the relative quantification of the mitochondrial transmembrane potential Δψm. The Adm-decreasing activities of compounds falling under general formula (I) were investigated with tetramethylrhodamine ethyl ester (TMRE) staining on A-549 cells. Access and cultivation method of A-549 cells are as described above. To this end, according cells were seeded into 96-well plates suitable for fluorescence assays (Greiner Bio-One, #655090) at a cell number of 45'000 cells per well. Cells were incubated over night at 37 °C and 5% CO2. This was followed by a complete medium change with 100 μL per well of fresh culture medium pre-warmed to 37 °C. Cells were further incubated at 37 °C and 5% CO2 for three hours. Then the cells were treated with compounds at 10 μM final concentration by adding 100 μL per well of a 2× compound working solution of 1:50 pre-diluted compound DMSO stock-solutions in Hank's Balanced Salt Solution (HBSS, Fisher Scientific, Gibco™ #14025). Cells were incubated for 2 hours and 40 minutes at 37 °C and 5% CO2. Then cells were treated with TMRE (AAT-Bioquest, #22220) at 300 nM final concentration by adding 20 μL per well of a 10×TMRE working solution from a 1:5 pre-diluted TMRE DMSO stock-solution in H2O (Water For Injection, WFI, Fisher Scientific, Gibco™ #A12873). Cells were incubated for further 20 minutes at room temperature in the dark, gently shaking on an orbital shaker (IKA, MTS 2/4 Digital Shaker, shaking at 300 rpm). Extracellular TMRE signal was quenched by adding 20 μL per well of a 1.6 mM solution of Brilliant Black BN (Carl Roth, #7643) in H2O. Cells were further incubated for 60 min at room temperature. Then the readout was taken with a multi-well plate-reader (Tecan Spark®) in the fluorescence mode using a filter for excitation at 535 nm (band width 25 nm) and for emission at 595 nm (band width 35 nm) without plate lid. Treatment for strong decrease in Δψm with the commercial mitochondrial uncoupler compound 2,4-dinitrophenol (DNP, Sigma Aldrich-Merck #34334) at a final concentration of 50 μM was included on every plate for assay quality control.
# The assays were performed in two independent biological replicates, each containing three technical replicates for every condition. For every individual plate, the measured fluorescence intensity values of the conditions with compound treatment were normalized against the corresponding equally weighted arithmetic mean of the fluorescence intensity values of the three DMSO treated control wells in order to obtain the relative values to a reference level of 1.0.
# The weighted arithmetic mean and the combined standard deviation as defined in the present invention was calculated for each compound as described above. The DNP control decreased the relative mitochondrial transmembrane potential Δψm in A-549 cells to 0.2.
# A-431 cells = assay: alamarBlue proliferation assay with A-431 cells; conditions: read-out: Activity on A-431: IC50, DMEM medium, 10% FBS
# [2] = read-out: Activity on MDA-MB-231 (IC50), glucose-free Leibovitz's L-15, 10% FBS, day 5, alamarBlue
pIC50 (MDA-MB-231 cells; [2]),pIC50 (JURKAT cells),pIC50 (HL-60 cells),pIC50 (SW-948 cells),pIC50 (NCI-H460 cells),"pIC50 (MDA-MB-231 cells; read-out: Activity (MDA), MDA-MB-231 cells, antiproliferative activity, class by IC50)",pIC50 (HCT-116 cells),pIC50 (A-549 cells),pIC50 (A-375 cells),pIC50 (HPEKp cells),pIC50 (A-431 cells),Compound,pIC50 (RVH-421 cells),pIC50 (TANQUE cells),pIC50 (NB-4 cells),pIC50 (BHY cells),pIC50 (LL/2 cells),Activity: relative mitochondrial transmembrane potential Δψm [1]
≥ 6.70,≥ 6.00,≥ 6.00,≥ 6.70,≥ 5.30,,,,,,,O=Cc1cc(C2CCC3(CC2)OCCO3)ccc1Oc1ccc(C(=O)N2CCN(Cc3ccc(S(F)(F)(F)(F)F)cc3)CC2)cc1,≥ 6.70,,,,,
≥ 6.70,≥ 5.30,≥ 5.30,≥ 5.30,≥ 5.30,,,,,,,O=Cc1cc(C2CCC3(CC2)OCCO3)ccc1Oc1ccc(C(=O)N2CCN(Cc3cnc4ccccc4c3)CC2)cc1,≥ 6.70,,,,,
≥ 6.70,≥ 6.00,≥ 6.00,≥ 5.30,≥ 5.30,,,,,,,O=Cc1cc(C2CCC3(CC2)OCCO3)ccc1Oc1ccc(C(=O)N2CCN(Cc3ccoc3)CC2)cc1,≥ 6.00,,,,,
≥ 6.00,≥ 6.00,≥ 5.30,≥ 5.30,≥ 5.30,,,,,,,O=Cc1cc(C2CCC3(CC2)OCCO3)ccc1Oc1ccc(C(=O)N2CCN(Cc3nccs3)CC2)cc1,≥ 6.00,,,,,
≥ 6.70,≥ 5.30,≥ 5.30,≥ 6.00,≥ 5.30,,,,,,,O=Cc1cc(C2CCC3(CC2)OCCO3)ccc1Oc1ccc(C(=O)N2CCN(Cc3ccc([N+](=O)[O-])cc3)CC2)cc1,≥ 6.70,,,,,
≥ 6.70,≥ 5.30,≥ 5.30,≥ 5.30,≥ 5.30,,,,,,,O=Cc1cc(C2CCC3(CC2)OCCO3)ccc1Oc1ccc(C(=O)N2CCN(Cc3ccsc3)CC2)cc1,≥ 6.70,,,,,
≥ 6.70,≥ 5.30,≥ 5.30,≥ 5.30,≥ 5.30,,,,,,,O=Cc1cc(C2CCC3(CC2)OCCO3)ccc1Oc1ccc(C(=O)N2CCN(Cc3cccs3)CC2)cc1,≥ 6.00,,,,,

# Continued, compound first:
Compound,pIC50 (MDA-MB-231 cells; [2]),pIC50 (JURKAT cells),pIC50 (HL-60 cells),pIC50 (SW-948 cells),pIC50 (NCI-H460 cells),"pIC50 (MDA-MB-231 cells; read-out: Activity (MDA), MDA-MB-231 cells, antiproliferative activity, class by IC50)",pIC50 (HCT-116 cells),pIC50 (A-549 cells),pIC50 (A-375 cells),pIC50 (HPEKp cells),pIC50 (A-431 cells),pIC50 (RVH-421 cells),pIC50 (TANQUE cells),pIC50 (NB-4 cells),pIC50 (BHY cells),pIC50 (LL/2 cells),Activity: relative mitochondrial transmembrane potential Δψm [1]
O=Cc1cc(C2CCC3(CC2)OCCO3)ccc1Oc1ccc(C(=O)N2CCN(c3ccc(Cl)cc3)CC2)cc1,≥ 5.30,≥ 5.30,≥ 5.30,≥ 4.70,≥ 5.30,,,,,,,≥ 5.30,,,,,
COc1ccc(CN2CCN(C(=O)c3ccc(Oc4ccc(C5CCC(OC)CC5)cc4)cn3)CC2)cc1 (centres unmarked),≥ 6.70,,,,,> 6.00,≥ 6.70,≥ 6.70,≥ 6.70,> 5.00,,,≥ 6.70,≥ 6.70,≥ 6.70,≥ 5.30,Δψm ≤0.7
O=Cc1cc(C2CCC3(CC2)OCCO3)ccc1Oc1ccc(C(=O)N2CC3(CN(Cc4ccccc4)C3)C2)cc1,≥ 5.30,≥ 6.00,≥ 6.00,≥ 4.70,≥ 5.30,,,,,,,≥ 5.30,,,,,
O=Cc1cc(C2CCC3(CC2)OCCO3)ccc1Oc1ccc(C(=O)N2CCN(c3ccc(O)cc3)CC2)cc1,≥ 6.00,≥ 5.30,≥ 5.30,≥ 5.30,≥ 5.30,,,,,,,≥ 6.00,,,,,
O=Cc1cc(C2CCC3(CC2)OCCO3)ccc1Oc1ccc(C(=O)N2CC3CC2CN3Cc2ccccc2)cc1 (centres unmarked),≥ 5.30,≥ 5.30,≥ 5.30,≥ 5.30,≥ 5.30,,,,,,,≥ 5.30,,,,,
COc1cc(C2CCC(OC)CC2)ccc1Oc1ccc(C(=O)N2CCN(Cc3ccc(Cl)cc3)CC2)nc1 (centres unmarked),,,,,,,≥ 6.70,≥ 6.70,≥ 6.70,,≥ 6.00,,≥ 6.70,≥ 6.70,≥ 6.00,≥ 5.30,Δψm ≤0.7
